Experimental data reported in patent publication US20140170199A1, “PARASITICIDAL COMBINATION COMPRISING INDOXACARB AND DELTAMETHRIN” (priority 2011, published 2014).

System: Ctenocephalides felis fleas
Details: dogs; for Flea efficacies, arithmetic mean / Flea efficacies, geometric mean: vs negative control
[1] = Day +2, count ~48 h after treatment or infestation
[2] = Day +9, count ~48 h after infestation
[3] = Day +30, count ~48 h after infestation
[4] = Day +37, count ~48 h after infestation
[5] = Day +65, count ~48 h after infestation
[6] = Day +93, count ~48 h after infestation
[7] = Day +121, count ~48 h after infestation
[8] = Day +149, count ~48 h after infestation
[9] = Day +163, count ~48 h after infestation
[10] = Day +177, count ~48 h after infestation

COC(=O)N(C(=O)N1CO[C@@]2(C(=O)OC)Cc3cc(Cl)ccc3C2=N1)c1ccc(OC(F)(F)F)cc1 [indoxacarb, (5)-methyl 7-chloro-2,5-dihydro-2-[[(methoxycarbonyl) [4-(trifluoromethoxy)phenyl]amino]carbonyl]indeno[1,2-e][1,3,4]oxadiazine-4a(3H)-carboxylate]
99.8%: Flea efficacies, arithmetic mean (Day +2 (immediate)) | Flea efficacies, geometric mean (Day +2 (immediate))
100.0%: Flea efficacies, arithmetic mean (Day +9) | Flea efficacies, geometric mean (Day +9) | Flea efficacies, arithmetic mean (Day +30) | Flea efficacies, geometric mean (Day +30) | Flea efficacies, arithmetic mean (Day +37) | Flea efficacies, geometric mean (Day +37) | Flea efficacies, arithmetic mean (Day +65) | Flea efficacies, geometric mean (Day +65) | Flea efficacies, arithmetic mean (Day +93) | Flea efficacies, geometric mean (Day +93) | Flea efficacies, arithmetic mean (Day +121) | Flea efficacies, geometric mean (Day +121) | Flea efficacies, arithmetic mean (Day +149) | Flea efficacies, geometric mean (Day +149) | Flea efficacies, arithmetic mean (Day +163) | Flea efficacies, geometric mean (Day +163) | Flea efficacies, arithmetic mean (Day +177) | Flea efficacies, geometric mean (Day +177)
0.0^2,4: Flea counts, geometric mean [2] | Flea counts, geometric mean [3] | Flea counts, geometric mean [4] | Flea counts, geometric mean [5] | Flea counts, geometric mean [6] | Flea counts, geometric mean [7] | Flea counts, geometric mean [8] | Flea counts, geometric mean [9] | Flea counts, geometric mean [10]
0.1^2,4: Flea counts, geometric mean [1]
0.0: Flea counts, arithmetic mean [2] | Flea counts, arithmetic mean [3] | Flea counts, arithmetic mean [4] | Flea counts, arithmetic mean [5] | Flea counts, arithmetic mean [6] | Flea counts, arithmetic mean [7] | Flea counts, arithmetic mean [8] | Flea counts, arithmetic mean [9] | Flea counts, arithmetic mean [10]
0.1: Flea counts, arithmetic mean [1]

Read-outs that look alike come from different tables or passages of the source.
